Amino acid sequences for entries named in this document (tags omitted).
Protein disulfide-isomerase (Homo sapiens), P07237, UniProt P07237, whole entry, looked up: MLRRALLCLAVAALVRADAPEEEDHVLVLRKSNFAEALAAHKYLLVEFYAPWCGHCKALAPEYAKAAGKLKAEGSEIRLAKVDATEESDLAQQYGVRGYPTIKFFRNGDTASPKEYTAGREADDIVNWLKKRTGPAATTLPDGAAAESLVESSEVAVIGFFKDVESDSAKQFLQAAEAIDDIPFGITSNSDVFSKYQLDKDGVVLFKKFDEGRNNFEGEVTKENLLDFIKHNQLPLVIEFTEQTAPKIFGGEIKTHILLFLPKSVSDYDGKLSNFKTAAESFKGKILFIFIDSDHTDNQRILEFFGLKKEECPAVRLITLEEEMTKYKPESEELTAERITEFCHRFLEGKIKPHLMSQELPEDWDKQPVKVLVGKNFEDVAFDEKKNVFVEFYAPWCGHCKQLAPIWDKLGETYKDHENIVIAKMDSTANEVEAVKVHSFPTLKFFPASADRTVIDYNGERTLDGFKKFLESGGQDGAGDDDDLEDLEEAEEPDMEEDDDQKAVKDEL

# PglD inh – C. jejuni PglD acetyltransferase inhibitors, primary screen, biochemical, DTNB colorimetric, single point. UDP-N-acetylbacillosamine N-acetyltransferase PglD (Campylobacter jejuni). purified PglD enzyme, DTNB colorimetric CoA detection. inhibition, % at 12.5 µM. 0.098% of 360,000 active. AID 602405, 2012; in the data active = inhibition above about 16%, passing the limit was not always enough
# FGF22 binding – binders of human FGF22 protein, primary screen, FGF22 synaptogenesis inhibitor project, biophysical, thermal shift, single point; Fibroblast growth factor 22 (Homo sapiens), Q9HCT0; recombinant FGF22 thermal shift, SYPRO orange fluorescence; percent of sucrose octasulfate shift, DMSO zero; activity (Tm shift, normalised), % at 9.99 µM; 1.5% of 340,000 active; AID 651658, 2012;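 active = mean Tm shift, scaled 0 neutral to 100 positive control, at about 1.3% or above, every replicate too, limit read from the data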
# ARNT-TACC3 inh – disruptors of ARNT/TACC3 protein interaction, primary screen, biochemical, AlphaScreen, single concentration. AlphaScreen His-ARNT PAS-B/GST-TACC3 binding, luminescence; TACC3 fragment carries E629A point mutation. inhibition, % at 9.99 µM. 0.66% of 390,000 active;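 active = mean inhibition of replicates at least 50% and at least half of replicates each reaching 50%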;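 also: 0% = complete ARNT plus TACC3 wells and 100% = ARNT alone without TACC3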
# PDI inh – inhibitors of human PDI, primary screen, biochemical, turbidity, single point, plate reader. Protein disulfide-isomerase (Homo sapiens), P07237. PDI insulin aggregation turbidity, A650, 90 min. inhibition, % at 10 µM. 0.052% of 350,000 active;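 active = mean inhibition across replicates of 30% or more, whatever share of single replicates reach that level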
# ERp5 inh – inhibitors of ERp5-driven insulin aggregation, primary screen, biochemical, turbidity, absorbance 650 nm, single point; 90 min; Protein disulfide-isomerase A6 (Homo sapiens), Q15084; 0.05% of 350,000 active; AID 651711, 2012; inhibition, % at 9.99 µM;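 active = mean replicate inhibition above about 25%, with every replicate also reaching it, limit read from the data, passing the limit was not always enough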
# UUG fidelity – modulators of start codon recognition fidelity in yeast; S. cerevisiae UUG-firefly luciferase reporter, luminescence/redox ratio; AID 602363; 350,000 tested, 0.13% active; activity score, % at 18.7 µM;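 active = replicate mean at a twofold rise or more, about +100% in these data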;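 also: firefly luciferase made from a UUG start codon reports start codon fidelity; reporter light over untreated wells divided by growth signal over untreated wells; some hits fall short of that in this replicate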
# An asterisk follows results filed as active; · = no result. Sampled rows, rich in hits. Any-hit rate of the full collection: about 1.9%.
SMILES,PglD inh,FGF22 binding,ARNT-TACC3 inh,PDI inh,ERp5 inh,UUG fidelity
COc1ccc(N2CCN(C(=O)CSc3ccc([N+](=O)[O-])cc3)CC2)cc1,·,0.0,-5.9,-4.9,-3.7,·
COc1ccc(N2CCN(C(=O)CSc3ccc(C)cc3)CC2)cc1,·,43.6*,22.1,-5.1,6.3,·
CCC(C)C(NC(=O)OC(C)(C)C)C(=O)NC(CC(C)C)C(N)=O (stereo not given),·,·,·,-0.9,·,-13.9
CCC(C)C(NC(=O)OC(C)(C)C)C(=O)NC(C)C(N)=O (stereo not given),·,42.9*,-1.6,-1.4,-7.1,·
COc1ccc(S(=O)(=O)N(C)C[C@H]2OCCCC[C@H](C)Oc3ccc(NC(=O)Cc4ccccc4)cc3C(=O)N([C@@H](C)CO)C[C@@H]2C)cc1,2.6,0.7,12.9,·,-8.3,7.2
C[C@H]1CN([C@@H](C)CO)S(=O)(=O)c2ccc(Br)cc2O[C@H]1CN(C)C(=O)C1CCCCC1,·,·,·,·,·,-16.2
CC(C)(C)c1ccc(OCCC(=O)OCC(=O)NC2CC2)cc1,5.8,-0.2,1.6,-4.4,6.0,-0.9
CC(C)(C)c1ccc(OCCC(=O)OCC(=O)NC2CCS(=O)(=O)C2)cc1 (stereo not given),·,43.2*,-0.1,-0.1,-0.1,·
COc1ccc2c3c([nH]c2c1)[C@@H](CO)N(C(=O)C1CCC1)CC31CN(C)C1,·,-0.1,·,·,-1.9,·
CCOc1ccc2nc(/N=C/c3c(C)[nH]n(-c4ccccc4)c3=O)sc2c1,·,·,27.4*,0.6,·,·
O=C(Nc1ccc(N2CCOCC2)cc1)C1CC1,0.3,·,-7.2,5.4,·,-9.0
O=C(N/N=C/c1ccc(N2CCOCC2)cc1)C1CC1,-1.8,0.1,·,37.9*,2.3,-48.7
O=C(N/N=C/c1ccsc1)C1CC1,·,43.1*,-0.6,-0.8,3.2,·
O=C(N/N=C/c1ccc(O)c(O)c1)C1CC1,0.0,-0.5,·,3.3,4.1,-12.4
Cc1ccc(S(=O)(=O)Nc2ccc3c(c2)CC(=O)N([C@@H](C)CO)C[C@@H](C)[C@H](CN(C)C(=O)NC2CCCCC2)O3)cc1,-3.0,0.1,-1.7,·,1.5,9.1
CNS(=O)(=O)c1cccc(C(=O)OCC(=O)Nc2ccc(N3CCCCC3)cc2)c1,3.7,43.2*,14.9,2.2,2.8,-6.5
COc1ccc(C[C@@H]2CCn3cc(nn3)COC[C@@H](CC(C)C)NC2=O)cc1,·,0.1,·,·,-2.6,·
CO[C@@H](CN(C)Cc1ccc(-c2ccccn2)cc1)[C@@H](C)CN(C(=O)Nc1ccc(F)cc1)[C@H](C)CO,2.1,0.3,13.3,·,-2.2,·
CO[C@@H](CN(C)Cc1ccc(-c2ccccn2)cc1)[C@H](C)CN(C(=O)Nc1ccc(F)cc1)[C@H](C)CO,1.6,8.2*,11.3,·,-0.4,·
Cc1cc(N2CCOCC2)nc(N2CCOCC2)n1,·,43.4*,·,0.2,-2.0,·
CO[C@@H]1CN(C)C(=O)c2cc(NS(=O)(=O)c3ccccc3)ccc2OC[C@@H](C)N(C(=O)NC(C)C)C[C@H]1C,9.0,-0.2,-25.5,·,-2.7,1.4
CCOC(=O)c1c[nH]n2c(=S)ncnc12,1.2,43.3*,·,-0.9,1.4,26.7
O=S(=O)(Cc1ccccc1)N1CC2(C1)[C@H](c1ccccc1)[C@@H](CO)N2CC1CCOCC1,·,-0.2,·,·,-2.6,·
O=C(CN1C(=O)NC2(CCCCC2)C1=O)N1CCc2ccccc2C1,1.4,0.1,-18.4,-3.7,-1.7,-4.5
O=C(CN1C(=O)NC2(CCCC2)C1=O)N1CCc2ccccc2C1,·,43.0*,-1.5,22.8,-8.1,·
CCCCC(=O)Nc1cccc(C(C)O)c1 (stereo not given),·,43.3*,·,·,-2.2,·
CC(C)CC(=O)Nc1cccc(C(C)O)c1 (stereo not given),·,43.3*,·,·,3.9,·
C[C@H]1CN([C@@H](C)CO)C(=O)c2cc(-c3cccnc3)cnc2O[C@@H]1CN(C)C(=O)Nc1ccc(C(F)(F)F)cc1,-2.1,-0.2,-5.0,·,2.7,13.1
Cc1c(C(=O)N/N=C/c2ccncc2)no[n+]1[O-],2.1,-0.1,69.1*,0.2,1.6,-7.1
C[C@H](CO)N1C[C@H](C)[C@@H](CN(C)C(=O)C2CCC2)Oc2ncc(-c3cccc(F)c3)cc2C1=O,-1.3,0.0,-5.6,·,-5.4,10.7
CCN(CC)C(=O)N1CCN(S(=O)(=O)c2ccccc2)CC1,·,43.5*,-1.5,1.3,2.6,·
Cc1ccc(S(=O)(=O)N2CCN(C(=O)N(c3ccccc3)c3ccccc3)CC2)cc1,-0.4,·,7.0,3.1,·,-11.3
O=C1NC(c2ccc(Br)cc2)Nc2sc3c(c21)CCC3 (stereo not given),11.2,·,6.0,-6.2,·,-1.9
O=C1NC(c2ccccn2)Nc2sc3c(c21)CCC3 (stereo not given),·,·,65.0*,14.4,·,·
Cc1cc([N+](=O)[O-])nn1CC(=O)N/N=C/c1ccccc1Br,·,0.1,5.5,10.2,-4.2,·
Cc1cc([N+](=O)[O-])nn1CC(=O)N/N=C/c1ccc(O)cc1O,0.4,-0.1,70.7*,0.0,0.4,-33.0
Cc1ccc(NC(=O)CCC(=O)N/N=C/c2ccc(O)cc2O)cc1,5.2,0.1,71.1*,16.2,1.6,-14.1
O=C(N/N=C/c1ccc(O)cc1O)/C(=C/c1ccccc1)CCO,-0.7,·,70.4*,-11.1,·,-24.2
C=CCc1cccc(/C=N/NC(=O)CCC(=O)Nc2ccc(C)cc2)c1O,-7.3,·,18.1,11.8,·,-0.5
Cc1ccc(NCC(=O)N/N=C/c2ccncc2)cc1,0.8,-0.1,-2.5,8.0,-3.5,-11.2

# Full records as entered above:
# `O=C1NC(c2ccccn2)Nc2sc3c(c21)CCC3` (stereo not given) is listed with PglD inh = ·; FGF22 binding = ·; ARNT-TACC3 inh = 65.0*; PDI inh = 14.4; ERp5 inh = ·; UUG fidelity = ·
# `CCN(CC)C(=O)N1CCN(S(=O)(=O)c2ccccc2)CC1` is listed with PglD inh = ·; FGF22 binding = 43.5*; ARNT-TACC3 inh = -1.5; PDI inh = 1.3; ERp5 inh = 2.6; UUG fidelity = ·

# Gathered by group, the compounds so far containing an aryl thioether with sulfur outside any ring
SMILES,PglD inh,FGF22 binding,ARNT-TACC3 inh,PDI inh,ERp5 inh,UUG fidelity
COc1ccc(N2CCN(C(=O)CSc3ccc([N+](=O)[O-])cc3)CC2)cc1,·,0.0,-5.9,-4.9,-3.7,·
COc1ccc(N2CCN(C(=O)CSc3ccc(C)cc3)CC2)cc1,·,43.6*,22.1,-5.1,6.3,·

# (next part)
SMILES,PglD inh,FGF22 binding,ARNT-TACC3 inh,PDI inh,ERp5 inh,UUG fidelity
Cc1ccc(NCC(=O)N/N=C/c2cc(O)ccc2[N+](=O)[O-])cc1,·,43.0*,·,-6.0,-1.0,·
Cc1ccc(NC2=NCC(=O)N2C2CCCC2)cc1,·,43.2*,-7.1,-5.5,1.7,·
O=C(NC1=NCCS1)c1cc(-c2ccc(-c3ccccc3)cc2)nc2ccccc12,·,43.2*,·,-2.0,0.4,·
COc1ccc(S(=O)(=O)Nc2cccc3c2O[C@@H](CN(C)Cc2ccccc2)[C@H](C)CN([C@H](C)CO)C3=O)cc1,-1.6,-0.1,-1.7,·,6.1,-0.8
COCC#Cc1ccc2c(c1)O[C@H](CN(C)S(C)(=O)=O)[C@H](C)CN([C@@H](C)CO)S2(=O)=O,0.7,-0.2,-6.0,·,-0.8,4.2
Cc1nc2nc(N)nc(OCc3ccccc3)c2nc1C,-2.5,0.0,·,-3.7,-0.1,-14.8
CCC(O)c1cnc(OCc2ccccc2)nc1OCc1ccccc1 (stereo not given),0.6,30.4*,·,5.1,-6.7,-6.4

# Screens (PubChem BioAssay)
